The experiment deals with VDAC channels (rat (endogenous in adult rat cardiomyocytes)) (UniProt Q9Z2L0). Description: cross-linking.

Chains of the proteins cited; added tags and fusions are not shown.
UniProt Q9Z2L0, whole entry: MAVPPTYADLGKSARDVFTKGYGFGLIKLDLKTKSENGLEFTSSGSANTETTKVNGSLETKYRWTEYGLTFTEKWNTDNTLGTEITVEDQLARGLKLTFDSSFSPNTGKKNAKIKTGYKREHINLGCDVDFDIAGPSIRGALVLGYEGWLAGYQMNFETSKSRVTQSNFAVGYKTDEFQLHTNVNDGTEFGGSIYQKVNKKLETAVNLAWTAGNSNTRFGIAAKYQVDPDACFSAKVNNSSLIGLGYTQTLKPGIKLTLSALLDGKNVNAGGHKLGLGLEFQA

What is called stoichiometry N is the number of molecules, sites or subunits per partner or assembly.

For the substance “VDAC channels (from UniProt Q9Z2L0 1-283) (natural protein)”, the stoichiometry N was determined as 2.

(Values after publication PMC3909701.)
